Experimental data: BindingDB's records for PubMed 2172775 (Neurogenetic, 1990)

Protein sequences, listed by entry. Tags and fused reporters are not part of them.
UniProt P18089, whole entry: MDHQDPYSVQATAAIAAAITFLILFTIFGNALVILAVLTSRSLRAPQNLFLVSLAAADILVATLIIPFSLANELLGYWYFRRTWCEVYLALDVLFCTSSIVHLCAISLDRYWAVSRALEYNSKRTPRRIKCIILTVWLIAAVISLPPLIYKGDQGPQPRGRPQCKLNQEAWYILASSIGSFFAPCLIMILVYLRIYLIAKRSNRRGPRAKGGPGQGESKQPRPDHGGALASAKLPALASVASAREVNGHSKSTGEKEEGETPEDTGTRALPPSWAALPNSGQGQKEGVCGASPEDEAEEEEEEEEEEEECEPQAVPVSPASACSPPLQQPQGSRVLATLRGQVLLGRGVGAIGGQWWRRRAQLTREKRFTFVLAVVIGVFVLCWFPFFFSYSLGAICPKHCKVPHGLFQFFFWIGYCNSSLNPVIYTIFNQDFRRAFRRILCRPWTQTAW

Biological target: Alpha-2B adrenergic receptor (Homo sapiens, UniProt P18089)

Nc1cc(Cl)c(N=C2NCCN2)c(Cl)c1 [p-AMINOCLONIDINE]
Ki: 4.5 nM
